System: MC3T3-E1 cells
Type: cell-based
Details: MC3T3-E1, without H2O2
Excerpt: FIG. 14C is a graph showing a cell saving study capability test of released ethyl pyruvate and degraded ethyl pyruvate.
As shown in FIGS. 14A and 14B, in vitro cytotoxicity profiles were first established for H2O2 and ethyl pyruvate with MC3T3-E1 pre-osteoblast cells.

For ethyl pyruvate thioketal [EPTK], the “baseline toxicity of linker” value was “non-toxic”.

Reference: patent publication US20240408271A1, “Functionalized Linkers in Responsive Biomaterials” (priority 2021, published 2024)
